In paper PMC9692677, “Virtual Cocrystal Screening of Adefovir Dipivoxyl: Identification of New Solid Forms with Improved Dissolution and Permeation Profiles” (Pharmaceutics, 2022):
Values joined by “and” are separate entries in the source; they are usually repeats but may differ in a detail not shown here. Equal entries are not always repeated. Where two headings read alike, the source gives them in different places.

Experiments:
[1] = Intrinsic dissolution at individual pH sectors (GLpKa, 3 mm disks, 30 min); details: pH 1.5; listed as AD–orcinol cocrystal

Compound: CC(C)(C)C(=O)OCOP(=O)(COCCn1cnc2c(N)ncnc21)OCOC(=O)C(C)(C)C.Cc1cc(O)cc(O)c1 [AD–Orc cocrystal]
- AD Solubility (pH 1.5): 289 (9) μM
- AD Solubility (pH 4): 138 (25) μM
- AD Solubility (pH 5.5): 92 (3) μM
- AD Solubility (pH 7.4): 88 (7) μM
- Dissolution rate relative to AD single solid form (fold faster) [1]: 3.2 fold and 2 fold
